# Literature values in US20160008277A1, “CO-PACKAGED DRUG PRODUCTS” (Lightlake Therapeutics Inc., priority 2014, published 2016).
# Key:
# [1] = adults; cited from earlier work
# [2] = neonatal study; cited from earlier work
smiles,measurement,setting,value
"C=CCN1CC[C@]23c4c5ccc(O)c4O[C@H]2C(=O)CC[C@@]3(O)[C@H]1C5.Cl [naloxone hydrochloride, 17-allyl-4,5a-epoxy-3,14-dihydroxymorphinan-6-one hydrochloride]",serum half-life (mean),[1],64 ± 12 min
same,mean plasma half-life,[2],3.1 ± 0.5 h
